Values quoted from earlier work as cited in article PMC12508576, “Implementing a trilineage differentiation in the ReproTracker assay for improved teratogenicity assessment” (Frontiers in Toxicology, 2025).

System: hiPSCs trilineage differentiation (cardiomyocytes, hepatocytes, neural rosette-like cells)
Conditions: based on effects on cardiomyocytes and/or hepatocytes only; ref Jamalpoor et al., 2022; cited from earlier work

Cc1ccc(NC(=O)c2ccc(CN3CCN(C)CC3)cc2)cc1Nc1nccc(-c2cccnc2)n1 [Imatinib]
LOAEL before inclusion of the neural differentiation readout: 31.3 µM
